According to PubChem BioAssay AID1117319 (Southern Research Institute, 2015):
The other results are listed elsewhere or left out. Some results for these compounds are left out of this collection, so the calls shown say nothing about other tests. Inconclusive results are not listed. Activity calls are given as the source filed them.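 Rule for the calls: active = inhibition above a set limit at one or more doses, reproduced on every date tested; inconclusive = results disagree between test dates, or hit never tested in dose response; inactive = the rest.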

Target: Virion infectivity factor (Human immunodeficiency virus type 1 group M subtype B (isolate BH10)) + Virion infectivity factor (Human immunodeficiency virus type 1 group M subtype B (isolate BRU/LAI)) + Virion infectivity factor (Human immunodeficiency virus type 1 group M subtype B (isolate PCV12)) + Virion infectivity factor (Human immunodeficiency virus type 1 group M subtype B (isolate HXB2)) + DNA dC->dU-editing enzyme APOBEC-3G (Homo sapiens) (UniProt P69720+P69721+P69722+P69723+Q9HC16)
Experiment: HIV-1 Vif–A3G interaction blockers – biochemical, TR-FRET, GST-Vif 1-94, biotin-A3G peptide, dose response retest, primary screen (AID 1117319);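 note: Vif residues 1-94 fused to GST binding biotinylated APOBEC3G peptide 110-148; 0% = full assay without inhibitor and 100% = GST in place of GST-Vif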
Settings: TR-FRET GST-Vif / biotin-A3G peptide binding; hits give high values

| SMILES | inhibition |
| --- | --- |
| CN(C)C1(CNC(=O)c2ccc(Br)cc2)CCCCC1 | inactive: -5.31% |
| COc1cc(C(=O)NCC2(N(C)C)CCCCC2)c([N+](=O)[O-])cc1OC | inactive: -8.7% |
| COc1ccc(Cl)cc1C(=O)NCC1(N(C)C)CCCCC1 | inactive: -7.37% |
| O=C(OC1CN2CCC1CC2)C(CO)(c1ccccc1)c1ccccc1 (stereo unspecified) | inactive: -5.02% |
| O=C(OCCN1CCCC1)C(O)(c1ccccc1)c1ccccc1 | inactive: 3.34% |
| CC(C)Oc1ccc(C(=O)NCC2(N(C)C)CCCCC2)cc1 | inactive: -2.76% |
| CN(C)c1cccc(C(=O)NCC2(N(C)C)CCCCC2)c1 | inactive: 8.96% |
| CN1[C@@H]2CC[C@H]1CC(OC(=O)C(O)(c1ccccc1)c1ccccc1)C2 (stereo partly specified) | inactive: -7.58% |
| COc1cc(SC)ccc1C(=O)NCC1(N(C)C)CCCCC1 | inactive: -5.92% |
| CCN(CC)CC(C)C(C)OC(=O)C(O)(c1ccccc1)c1ccccc1 (stereo unspecified) | inactive: -8.76% |
| CC(C)N1C(=O)CC2(CCN(CCOC(=O)C(O)(c3ccccc3)c3ccccc3)CC2)C1=O | inactive: -5.87% |
| CN(C)c1ccc(C(=O)NCC2(N(C)C)CCCCC2)cc1 | inactive: 3.06% |
| O=C(NCC1(N2CCCCC2)CCCCC1)c1cc(F)c(F)cc1Cl | inactive: -4.83% |
| C=CCN1CCN(CCOC(=O)C(O)(c2ccccc2)c2ccccc2)CC1 | inactive: -7.5% |
| COc1ccc(C(=O)NCC2(N(C)C)CCCCC2)cc1 | inactive: -4.27% |
| Cc1cc(C(=O)NCC2(N3CCCCC3)CCCCC2)ccc1[N+](=O)[O-] | inactive: 0.59% |
